Measurements taken from ChEMBL document CHEMBL1138134, “Phthalazinones 2: Optimisation and synthesis of novel potent inhibitors of poly(ADP-ribose)polymerase” (Bioorg Med Chem Lett, 2006).

Amino acid sequences for entries named in this document (tags omitted).
UniProt P09874, whole entry: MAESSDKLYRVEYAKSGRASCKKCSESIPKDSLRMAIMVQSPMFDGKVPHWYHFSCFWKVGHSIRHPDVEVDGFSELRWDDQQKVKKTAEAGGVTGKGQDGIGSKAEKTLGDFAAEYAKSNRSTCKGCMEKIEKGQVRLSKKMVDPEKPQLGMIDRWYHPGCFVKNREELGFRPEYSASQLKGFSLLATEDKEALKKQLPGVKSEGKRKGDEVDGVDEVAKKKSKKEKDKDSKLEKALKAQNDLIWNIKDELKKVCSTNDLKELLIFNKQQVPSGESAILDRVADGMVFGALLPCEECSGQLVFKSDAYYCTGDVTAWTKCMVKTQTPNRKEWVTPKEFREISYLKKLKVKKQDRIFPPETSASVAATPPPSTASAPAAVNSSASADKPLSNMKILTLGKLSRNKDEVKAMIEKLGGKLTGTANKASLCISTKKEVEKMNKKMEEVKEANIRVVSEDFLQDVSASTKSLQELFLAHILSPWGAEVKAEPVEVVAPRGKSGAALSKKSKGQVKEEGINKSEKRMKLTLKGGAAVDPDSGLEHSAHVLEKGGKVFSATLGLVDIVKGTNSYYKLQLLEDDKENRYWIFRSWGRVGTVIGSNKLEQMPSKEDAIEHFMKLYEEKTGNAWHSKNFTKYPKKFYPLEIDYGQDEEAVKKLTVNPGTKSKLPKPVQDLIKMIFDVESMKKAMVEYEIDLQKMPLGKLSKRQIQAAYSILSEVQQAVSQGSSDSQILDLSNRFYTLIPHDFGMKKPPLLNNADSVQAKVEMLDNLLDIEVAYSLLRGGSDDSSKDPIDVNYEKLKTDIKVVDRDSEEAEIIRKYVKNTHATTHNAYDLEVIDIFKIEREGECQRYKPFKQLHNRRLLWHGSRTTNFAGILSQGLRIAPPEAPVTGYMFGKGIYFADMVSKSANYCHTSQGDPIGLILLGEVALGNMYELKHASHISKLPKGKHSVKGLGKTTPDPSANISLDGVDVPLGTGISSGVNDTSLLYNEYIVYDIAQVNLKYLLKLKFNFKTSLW

Biological target: Poly [ADP-ribose] polymerase 1 (Homo sapiens, UniProt P09874)
Test: Inhibitory activity against PARP1

SMILES | pIC50
O=C(c1cccc(Cc2n[nH]c(=O)c3ccccc23)c1)N1CCNCC1 | 7.80
O=C(c1cc(Cc2n[nH]c(=O)c3ccccc23)ccc1F)N1CCCN(C2CCCCC2)CC1 | 8.30

pIC50: −log10 of the molar value.
